# Binding of CDR-mutated scFvs to a peptide of the spike HR2 region

Reference: Engelhart et al. 2022, doi:10.1038/s41597-022-01779-4. File: FLAb, binding data.

The target is the same throughout: PDVDLGDISGINAS, from the HR2 region of SARS-CoV-2 spike.

Each scFv is VL, a 15-residue (Gly4Ser)3 linker, VH, as in the parent Ab-91, and differs from it in the CDRs of the heavy chain only.
VL: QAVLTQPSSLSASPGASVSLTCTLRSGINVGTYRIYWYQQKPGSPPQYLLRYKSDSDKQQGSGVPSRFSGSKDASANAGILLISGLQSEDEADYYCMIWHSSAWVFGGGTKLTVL
VH: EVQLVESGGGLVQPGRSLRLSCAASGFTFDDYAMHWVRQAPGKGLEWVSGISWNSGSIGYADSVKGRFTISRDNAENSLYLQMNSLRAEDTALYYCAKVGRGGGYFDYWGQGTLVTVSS

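Library AAYL51 holds single substitutions and randomly drawn double and triple substitutions in the CDRs. In AlphaSeq, yeast of one mating type display the scFv and yeast of the other type display the target. After mating in shaken culture at 30 °C for 16 h, diploids were selected and their barcode pairs sequenced. A regression on co-assayed BCL2-family reference pairs converts the normalised counts of each replicate to an apparent Kd. The assay was run in three technical replicates.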

Substitutions are numbered in sequence along the VH above, starting at 1 (not Kabat).
Values are log10 of the apparent Kd in nM; lower means stronger binding.
Averages over replicates are reported, and they cover detected replicates only.
An entry "nd" has no value in the source: the pair was not observed among the diploids in that replicate. This suggests poor binding but is not conclusive.
As a blank, each scFv also met three strains without target: over library AAYL51, 21% of these pairings were detected, typically at 4.54 and seldom below 3.26. For each scFv, signals with the empty controls are counted beside the result, with their mean in brackets.
For reference, the parent read 1.86 as the reference entry and 0.88 as a member of this library.

changes | replicates, log10 nM | mean, log10 nM | empty controls
I51M+S55G+Y108A | 1.54 1.58 1.09 | 1.40 | 5/9 (4.80)
H35Q+S55R | nd nd nd | nd | 0/9
G50A+V99P | 5.01 4.48 nd | 4.74 | 5/9 (4.48)
F27D+D62K+Y105D | nd nd 5.17 | 5.17 | 4/9 (5.29)
I58G+G103N+Y108I | nd nd nd | nd | 0/9
D31E+Y32V+A33M | nd nd 4.10 | 4.10 | 0/9
F27G+D30W+S52E | nd nd nd | nd | 0/9
S57P+I58H+G59L | nd nd nd | nd | 4/9 (3.93)
Y32I+I51K+W53T | 3.50 nd nd | 3.50 | 2/9 (4.31)
G26A+I51T+S57K | 3.92 nd nd | 3.92 | 1/9 (3.77)
M34F+I58N+G59E | nd nd nd | nd | 0/9
V64N+G103Q+Y105H | 6.13 nd nd | 6.13 | 2/9 (3.77)
F29K+G50N+S57N | nd 4.10 nd | 4.10 | 4/9 (4.55)
G26V+D31W+R101T | nd nd nd | nd | 1/9 (3.37)
G56H+S57K+G103N | 4.22 5.89 5.17 | 5.10 | 7/9 (5.12)
F29N+S52T+Y105T | nd nd nd | nd | 3/9 (3.98)
Y32T+M34D+G100R | nd nd nd | nd | 0/9
G26W+F106D+Y108E | nd nd nd | nd | 0/9
M34S+R101P+Y108H | nd 3.00 nd | 3.00 | 0/9
S52M+R101I+G102A | nd nd nd | nd | 1/9 (2.98)
W53R+K65L+G102A | 3.03 3.40 2.86 | 3.10 | 3/9 (4.38)
F29L+G59H+R101E | nd nd 4.54 | 4.54 | 2/9 (3.77)
G26A+S55A+G59T | nd nd nd | nd | 2/9 (4.05)
D31P+I58K+D62H | nd nd nd | nd | 1/9 (2.51)
M34R+S55T+I58P | 5.19 nd 4.96 | 5.08 | 0/9
M34N+N54D | 4.67 3.26 nd | 3.96 | 6/9 (4.46)
W53F+Y105P+Y108W | 1.29 1.96 0.69 | 1.31 | 0/9
Y60C+R101M+G103S | nd nd nd | nd | 0/9
F27K+T28H+G50N | nd nd nd | nd | 0/9
Y32R+Y60A+D62E | nd nd nd | nd | 0/9
G50D+I51P+G104C | nd nd nd | nd | 0/9
T28M+F29Q+G59E | 5.37 nd nd | 5.37 | 6/9 (4.43)
F27S+S55E+Y60H | nd nd nd | nd | 1/9 (5.53)
F29Q+S63E | 5.21 5.22 4.57 | 5.00 | 7/9 (4.95)
G26H+S57R+R101I | 4.41 4.55 6.22 | 5.06 | 6/9 (5.73)
H35P+S63H+R101K | nd nd nd | nd | 0/9
F27L+D31K+Y105R | nd nd nd | nd | 1/9 (3.54)
G50R+F106A | nd nd nd | nd | 0/9
Y32E+A61I+D107C | 4.57 nd nd | 4.57 | 2/9 (4.54)
S55K+R101G | 6.15 nd nd | 6.15 | 3/9 (4.84)
T28F+S55D+G102Q | nd nd nd | nd | 3/9 (5.00)
A33V+W53F+R101C | nd nd nd | nd | 4/9 (4.27)
S55H+A61G | nd 4.13 nd | 4.13 | 1/9 (5.59)

The last 2 entries again:

{"changes": "A33V+W53F+R101C", "replicates, log10 nM": "nd nd nd", "mean, log10 nM": "nd", "empty controls": "4/9 (4.27)"}
{"changes": "S55H+A61G", "replicates, log10 nM": "nd 4.13 nd", "mean, log10 nM": "4.13", "empty controls": "1/9 (5.59)"}